# Earlier results in patent US8192734B2, “Compositions and methods for bone strengthening” (Cornell University, priority 2007, dated 2012).
# Tested on: rats
# Conditions: cited from earlier work
substance,measurement,value
strontium nitrate,LD50,540 mg/kg body weight
